{"source": "ChEMBL document CHEMBL1124013", "about": "“Anticonvulsant activities of phenyl-substituted bicyclic 2,4-oxazolidinediones and monocyclic models. Comparison with binding to the neuronal voltage-dependent sodium channel” (J Med Chem, 1988)", "experiment": "Rotarod toxicity test for the compound in Phase-II screening was determined", "assay_type": "organism-based", "settings": "mouse, in vivo", "outline": "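Phase II quantitative evaluation in mice by the NINCDS program. Dosing was ip as suspensions in 0.5% methylcellulose or 30% polyethylene glycol 400. ED50 (MES or subcutaneous Metrazol) or TD50 (rotorod) in mg/kg was derived with 95% confidence intervals, measured at the stated time after administration.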", "data": [{"molecule": "NC(=O)N1c2ccccc2C=Cc2ccccc21", "note": "[CARBAMAZEPINE]", "values": [{"measurement": "TD50", "value": 72, "unit": "mg/kg"}]}]}
